Reference: PMC4330371, “Interaction between the RNA-dependent ATPase and poly(A) polymerase subunits of the TRAMP complex is mediated by short peptides and important for snoRNA processing” (Nucleic Acids Research, 2015)

Amino acid sequences for entries named in this document (tags omitted). A change or cut given only in a name is not applied to a line headed by its entry.
UniProt P48561: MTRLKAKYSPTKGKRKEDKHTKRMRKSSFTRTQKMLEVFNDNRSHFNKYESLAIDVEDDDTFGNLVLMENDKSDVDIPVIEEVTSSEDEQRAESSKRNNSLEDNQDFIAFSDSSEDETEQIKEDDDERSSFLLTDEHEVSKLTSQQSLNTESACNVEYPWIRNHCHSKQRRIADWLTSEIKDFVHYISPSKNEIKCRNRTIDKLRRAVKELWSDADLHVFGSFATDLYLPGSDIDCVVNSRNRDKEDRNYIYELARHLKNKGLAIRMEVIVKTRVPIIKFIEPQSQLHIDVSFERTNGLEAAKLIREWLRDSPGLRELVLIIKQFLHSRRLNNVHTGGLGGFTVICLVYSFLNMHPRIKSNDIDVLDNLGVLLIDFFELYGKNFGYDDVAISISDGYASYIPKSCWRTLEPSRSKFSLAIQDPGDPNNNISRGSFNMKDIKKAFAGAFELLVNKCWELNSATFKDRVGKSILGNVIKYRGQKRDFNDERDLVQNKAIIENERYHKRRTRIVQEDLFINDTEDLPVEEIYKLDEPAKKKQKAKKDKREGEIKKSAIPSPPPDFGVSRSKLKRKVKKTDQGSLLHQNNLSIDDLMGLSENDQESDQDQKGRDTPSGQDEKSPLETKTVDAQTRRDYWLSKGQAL

Key:
[1] = system: Mtr4-ΔN80; settings: ITC, dimeric complex containing either one of the peptide motifs; cited from earlier work
From the text: While we were preparing this manuscript, Falk et al. independently identified similar Trf4 and Air2 regions that can directly interact with Mtr4 ([38]). […] The agreement is remarkable considering the difference in methods (isothermal titration calorimetry/ITC versus fluorescence anisotropy), Mtr4 construct (Mtr4-ΔN80 and Mtr4-ΔN74) and Trf/Air binding partner (dimeric protein complexes versus isolated peptid ...

[2] = molecular target: T1, Mtr4^WT (recombinant, pSJJ004) (S. cerevisiae, UniProt P47047 1-1073); experiment: fluorescence polarisation; fluorescence anisotropy; fluorescein-Air2 1-29 peptide held at 80 nM, titrated with Mtr4; 50 mM HEPES pH 7.5, 100 mM NaCl, 0.1 mg/ml bovine serum albumin, 12% glycerol; 25°C; apparent Kd; settings: both partners purified
T1 construct: Mtr4, S. cerevisiae, full length; the His tag is TEV protease-cleavable; also called full-length recombinant Mtr4; recombinant Mtr4
T1 sequence (looked up): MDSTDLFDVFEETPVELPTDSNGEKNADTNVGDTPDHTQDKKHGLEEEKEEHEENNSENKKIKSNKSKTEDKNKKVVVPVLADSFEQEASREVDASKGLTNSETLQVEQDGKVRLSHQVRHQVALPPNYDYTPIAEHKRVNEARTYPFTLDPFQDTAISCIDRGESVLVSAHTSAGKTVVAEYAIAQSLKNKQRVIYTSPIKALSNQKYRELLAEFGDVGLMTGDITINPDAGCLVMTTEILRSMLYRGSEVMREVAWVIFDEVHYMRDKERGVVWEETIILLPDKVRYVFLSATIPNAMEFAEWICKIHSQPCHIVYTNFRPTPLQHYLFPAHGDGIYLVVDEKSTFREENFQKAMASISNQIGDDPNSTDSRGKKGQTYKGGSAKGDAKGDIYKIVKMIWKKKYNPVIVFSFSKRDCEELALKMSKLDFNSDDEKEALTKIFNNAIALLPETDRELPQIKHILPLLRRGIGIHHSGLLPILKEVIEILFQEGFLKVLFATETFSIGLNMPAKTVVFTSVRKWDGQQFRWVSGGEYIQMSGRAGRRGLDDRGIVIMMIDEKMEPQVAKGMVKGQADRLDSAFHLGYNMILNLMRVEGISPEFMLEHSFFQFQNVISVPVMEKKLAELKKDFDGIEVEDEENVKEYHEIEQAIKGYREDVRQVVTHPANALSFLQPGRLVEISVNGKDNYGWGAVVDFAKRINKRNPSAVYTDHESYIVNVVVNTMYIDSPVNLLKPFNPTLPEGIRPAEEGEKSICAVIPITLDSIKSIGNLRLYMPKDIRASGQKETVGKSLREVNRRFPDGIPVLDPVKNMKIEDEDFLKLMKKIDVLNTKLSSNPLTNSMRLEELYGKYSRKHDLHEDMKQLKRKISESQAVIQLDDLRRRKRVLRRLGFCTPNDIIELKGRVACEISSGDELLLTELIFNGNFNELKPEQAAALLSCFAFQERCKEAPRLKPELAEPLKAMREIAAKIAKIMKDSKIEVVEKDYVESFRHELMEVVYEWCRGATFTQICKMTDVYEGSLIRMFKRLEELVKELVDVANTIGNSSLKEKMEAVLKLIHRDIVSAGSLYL

[3] = molecular target: T1, Mtr4^WT (recombinant, pSJJ004); experiment: fluorescence polarisation; fluorescence anisotropy; fluorescein-Trf5 peptide held at 50 nM, increasing Mtr4; 50 mM HEPES pH 7.5, 140 mM NaCl, 12% glycerol; 30 min at 30°C, read at 30°C; settings: both partners purified

B1: complex of recombinant Trf4 and Air2: complex of recombinant Trf4 and Air2 that contained either one of the peptide motifs (Falk et al.) (protein, UniProt P53632 1-584; Q12476 1-344, looked up)
Poly(A) RNA polymerase …: MGAKSVTASSSKKIKNRHNGKVKKSKKIKKVRKPQKSISLNDENEVEILPSRNEQETNKLPKDHVTADGILVLEHKSDDDEGFDVYDGHFDNPTDIPSTTEESKTPSLAVHGDEKDLANNDDFISLSASSEDEQAEQEEEREKQELEIKKEKQKEILNTDYPWILNHDHSKQKEISDWLTFEIKDFVAYISPSREEIEIRNQTISTIREAVKQLWPDADLHVFGSYSTDLYLPGSDIDCVVTSELGGKESRNNLYSLASHLKKKNLATEVEVVAKARVPIIKFVEPHSGIHIDVSFERTNGIEAAKLIREWLDDTPGLRELVLIVKQFLHARRLNNVHTGGLGGFSIICLVFSFLHMHPRIITNEIDPKDNLGVLLIEFFELYGKNFGYDDVALGSSDGYPVYFPKSTWSAIQPIKNPFSLAIQDPGDESNNISRGSFNIRDIKKAFAGAFDLLTNRCFELHSATFKDRLGKSILGNVIKYRGKARDFKDERGLVLNKAIIENENYHKKRSRIIHDEDFAEDTVTSTATATTTDDDYEITNPPAKKAKIEEKPESEPAKRNSGETYITVSSEDDDEDGYNPYTL
Protein AIR2: MEKNTAPFVVDTAPTTPPDKLVAPSIEEVNSNPNELRALRGQGRYFGVSDDDKDAIKEAAPKCNNCSQRGHLKKDCPHIICSYCGATDDHYSRHCPKAIQCSKCDEVGHYRSQCPHKWKKVQCTLCKSKKHSKERCPSIWRAYILVDDNEKAKPKVLPFHTIYCYNCGGKGHFGDDCKEKRSSRVPNEDGSAFTGSNLSVELKQEYYRHMNRNSDENEDYQFSESIYDEDPLPRPSHKRHSQNDHSHSGRNKRRASNFHPPPYQKSNVIQPTIRGETLSLNNNISKNSRYQNTKVNVSSISENMYGSRYNPSTYVDNNSISNSSNYRNYNSYQPYRSGTLGKRR
**Q.** Which “affinity for Mtr4” value [1] does the source give for B1 here?
**A.** affinities very similar to those we determined

B2: Air2 peptide comprising residues 1–29 with an N-terminal fluorescein label (peptide, UniProt Q12476 1-29, looked up)
peptide: MEKNTAPFVVDTAPTTPPDKLVAPSIEEV
modifications: fluorescein on the N-terminus
notes: also called Air2^1–29 peptide; Air2 residues 1–29; source: peptide obtained from Dr. Joshua Price at Brigham Young University
**Q.** With B2 as the molecule, how does the Kd [2] read?
**A.** ~6.9 µM

B3: Trf5 peptide comprising residues 98–124 with an N-terminal fluorescein label (peptide, UniProt P48561 98-124, looked up)
peptide: NNSLEDNQDFIAFSDSSEDETEQIKED
modifications: fluorescein on the N-terminus
notes: Trf5, S. cerevisiae, residues 98-124; the methods give 98-124; also called fluorescein-labeled Trf5 peptide; fluorescently labeled Trf5 peptide; source: synthetic peptide, purchased through the Keck lab at Yale University
**Q.** With B3 as the molecule, how does the Kd [3] read?
**A.** 10.7 µM
